What is called IC50 is the concentration that gives 50% inhibition. Low values mean higher potency, high ones lower potency.

Chains of the proteins cited; added tags and fusions are not shown.
UniProt P61169, whole entry: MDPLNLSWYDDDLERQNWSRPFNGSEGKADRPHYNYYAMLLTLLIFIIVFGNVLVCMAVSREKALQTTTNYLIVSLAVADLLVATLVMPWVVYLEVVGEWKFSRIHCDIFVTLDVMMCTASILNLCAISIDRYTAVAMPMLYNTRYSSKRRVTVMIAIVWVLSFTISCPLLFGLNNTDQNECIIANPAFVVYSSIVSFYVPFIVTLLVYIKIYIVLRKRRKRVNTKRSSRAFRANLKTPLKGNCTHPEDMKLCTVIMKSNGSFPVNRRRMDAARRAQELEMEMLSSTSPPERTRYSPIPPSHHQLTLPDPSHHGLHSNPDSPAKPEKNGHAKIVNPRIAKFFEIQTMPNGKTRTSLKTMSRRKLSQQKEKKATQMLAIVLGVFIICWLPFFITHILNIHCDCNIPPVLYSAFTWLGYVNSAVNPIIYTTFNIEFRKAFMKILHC

The experiment deals with D(2) dopamine receptor (Rattus norvegicus, UniProt P61169). Description: Binding affinity at dopamine D2 receptor by [3H]spiperone displacement.

Consider `O=C1NCCN1CCN1CCN([C@@H]2C[C@@H](c3ccc(F)cc3)c3cc(Cl)ccc32)CC1`, for which the IC50 is 360 nM.

These data come from ChEMBL document CHEMBL1127838, “Development of a receptor-interaction model for serotonin 5-HT2 receptor antagonists. Predicting selectivity with respect to dopamine D2 receptors” (J Med Chem, 1994).
